# Patent US9757471B2, “Protozoan variant-specific surface proteins (VSP) as carriers for oral drug delivery” (priority 2012, dated 2017)
# Assays:
# [1] = combined with VSP carrier
# trypsin = conditions: glucagon alone, 1 μg, 1 hour at 37° C., dot blot
smiles,measurement,setting,value
CSCC[C@H](NC(=O)[C@H](CC(C)C)NC(=O)[C@H](Cc1c[nH]c2ccccc12)NC(=O)[C@H](CCC(N)=O)NC(=O)[C@@H](NC(=O)[C@H](Cc1ccccc1)NC(=O)[C@H](CC(=O)O)NC(=O)[C@H](CCC(N)=O)NC(=O)[C@H](C)NC(=O)[C@H](CCCN=C(N)N)NC(=O)[C@H](CCCN=C(N)N)NC(=O)[C@H](CO)NC(=O)[C@H](CC(=O)O)NC(=O)[C@H](CC(C)C)NC(=O)[C@H](Cc1ccc(O)cc1)NC(=O)[C@H](CCCCN)NC(=O)[C@H](CO)NC(=O)[C@H](Cc1ccc(O)cc1)NC(=O)[C@H](CC(=O)O)NC(=O)[C@H](CO)NC(=O)[C@@H](NC(=O)[C@H](Cc1ccccc1)NC(=O)[C@@H](NC(=O)CNC(=O)[C@H](CCC(N)=O)NC(=O)[C@H](CO)NC(=O)[C@@H](N)Cc1c[nH]cn1)[C@@H](C)O)[C@@H](C)O)C(C)C)C(=O)N[C@@H](CC(N)=O)C(=O)N[C@H](C(=O)O)[C@@H](C)O [glucagon],resistance of glucagon to pH-induced degradation,[1],increased the resistance
same,effect of trypsin on glucagon,trypsin,proteolyzed
